# Reference: patent US11352350B2, “IRAK degraders and uses thereof” (Kymera Therapeutics, Inc., priority 2018, dated 2022)
# Amino acid sequences for entries named in this document (tags omitted).
# UniProt Q9NWZ3, whole entry: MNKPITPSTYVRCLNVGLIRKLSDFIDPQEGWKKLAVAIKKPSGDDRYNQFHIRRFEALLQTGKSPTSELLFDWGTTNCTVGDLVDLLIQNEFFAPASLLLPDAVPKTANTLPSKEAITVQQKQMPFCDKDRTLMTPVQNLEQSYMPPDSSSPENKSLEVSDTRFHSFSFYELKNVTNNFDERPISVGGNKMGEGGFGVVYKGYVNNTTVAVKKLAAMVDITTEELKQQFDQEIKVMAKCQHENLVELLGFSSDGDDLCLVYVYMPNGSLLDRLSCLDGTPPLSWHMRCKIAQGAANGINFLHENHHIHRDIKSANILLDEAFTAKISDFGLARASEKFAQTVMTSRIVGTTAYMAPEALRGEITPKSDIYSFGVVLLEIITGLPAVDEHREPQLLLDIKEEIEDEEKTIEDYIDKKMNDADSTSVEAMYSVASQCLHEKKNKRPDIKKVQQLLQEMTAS
# pIC50: −log10 of the molar value.
# Columns and labels:
# TNFα = assay: Human whole blood LPS TNFα assay; details: read-out: IRAK4 human whole blood LPS TNFa inhibition: Average external-IC50, 20 h pretreatment, LPS 5 h
# IRAK4 [1] = biological target: T1, IRAK4 (Homo sapiens (Human), UniProt Q9NWZ3); assay: IRAK4 MSD degradation in OCI-LY10; format: cell-based; details: read-out: IRAK4 MSD degradation in OCI-LY10 at 4 hrs: Average external-Abs DC50, OCI-LY10, 4 hrs
# IRAK4 [2] = biological target: T1, IRAK4; assay: IRAK4 degradation in human whole blood lymphocyte - flow cytometry; details: read-out: IRAK4 degradation in whole blood lymphocyte-Flow cytometry: Average external Abs IC50
# OCI-LY10 = assay: CTG Cell Viability Assay - OCI-LY10; details: read-out: CTG Cell Viability Assay - OCI-LY10: Average external-IC50; OCI-LY10, 4 days
# IRAK4 [3] = biological target: T1, IRAK4; assay: IRAK4 degradation in human whole blood monocyte - flow cytometry; details: read-out: IRAK4 degradation in whole blood monocyte-Flow cytometry: Average external Abs IC50
smiles,measurement,setting,value
Cn1c(=O)n(C2CCC(=O)NC2=O)c2cccc(CCCOCCCNC[C@H]3CC[C@H](n4cc(NC(=O)c5coc(-c6ccnc(NCC(F)(F)F)c6)n5)c(C(N)=O)n4)CC3)c21 (some centres unmarked),pIC50,TNFα,< 6.00
same,DC50,IRAK4 [1],< 10 nM
same,pIC50,IRAK4 [2],6.30 to 7.00
same,pIC50,OCI-LY10,< 6.00
same,pIC50,IRAK4 [3],> 7.30
CC(C)c1nn([C@H]2CC[C@H](CN(C)CCOCCOCCCc3cccc4c3n(C)c(=O)n4C3CCC(=O)NC3=O)CC2)cc1NC(=O)c1coc(-c2ccnc(NCC3CC3)c2)n1 (some centres unmarked),DC50,IRAK4 [1],100 to 1000 nM
CN(CCOCCNCc1cccc2c1n(C)c(=O)n2C1CCC(=O)NC1=O)C(=O)[C@H]1CC[C@H](n2cc(NC(=O)c3coc(-c4ccnc(NCC5CC5)c4)n3)c(C(F)F)n2)CC1 (some centres unmarked),DC50,IRAK4 [1],< 10 nM
same,pIC50,OCI-LY10,< 6.00
